Measured values: ChEMBL document CHEMBL1143618, “Discovery of a beta-MSH-derived MC-4R selective agonist” (J Med Chem, 2005)

Amino acid sequences for entries named in this document (tags omitted). A change or cut given only in a name is not applied to a line headed by its entry.
UniProt P41968: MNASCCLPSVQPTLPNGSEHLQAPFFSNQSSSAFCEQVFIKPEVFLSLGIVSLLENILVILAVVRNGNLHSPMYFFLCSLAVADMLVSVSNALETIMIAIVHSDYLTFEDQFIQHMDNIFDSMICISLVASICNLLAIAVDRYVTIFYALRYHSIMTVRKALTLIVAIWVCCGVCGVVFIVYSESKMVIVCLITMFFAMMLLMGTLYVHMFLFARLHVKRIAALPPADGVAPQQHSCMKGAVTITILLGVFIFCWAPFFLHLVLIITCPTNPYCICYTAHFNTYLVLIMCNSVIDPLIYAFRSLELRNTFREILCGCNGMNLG
UniProt P32245, whole entry: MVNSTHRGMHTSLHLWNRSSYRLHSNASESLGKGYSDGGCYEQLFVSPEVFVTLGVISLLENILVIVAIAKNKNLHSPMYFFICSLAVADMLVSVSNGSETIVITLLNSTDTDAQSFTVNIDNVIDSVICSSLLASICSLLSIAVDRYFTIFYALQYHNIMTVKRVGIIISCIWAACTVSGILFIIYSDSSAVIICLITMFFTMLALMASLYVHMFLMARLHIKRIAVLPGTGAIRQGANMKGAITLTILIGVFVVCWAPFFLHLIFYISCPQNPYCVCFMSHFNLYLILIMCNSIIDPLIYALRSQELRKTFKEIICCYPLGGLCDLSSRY

Tests used:
[1] = target: Melanocortin receptor 3 (Homo sapiens, UniProt P41968); experiment: Inhibition of [125I]-NDP-alpha-MSH binding to melanocortin-3 receptor expressed in HEK293 cells; assay type: cell-based
[2] = target: Melanocortin receptor 4 (Homo sapiens, UniProt P32245); experiment: Inhibition of [125I]NDP-alpha-MSH binding to melanocortin-4 receptor expressed in HEK293 cells; assay type: cell-based

Structure (SMILES)	Ki [1]	Ki [2]
CC(=O)N[C@@H](Cc1ccc(O)cc1)C(=O)N[C@@H](CCCNC(=N)N)C(=O)N[C@H]1CSSC[C@@H](C(N)=O)NC(=O)[C@H](Cc2c[nH]c3ccccc23)NC(=O)[C@H](CCCNC(=N)N)NC(=O)[C@@H](Cc2ccccc2)NC(=O)[C@H](Cc2c[nH]cn2)NC(=O)[C@H](CCC(=O)O)NC1=O	0.055 µM	–
CC(=O)N[C@@H](CCCNC(=N)N)C(=O)N[C@H]1CSSC[C@@H](C(N)=O)NC(=O)[C@H](Cc2c[nH]c3ccccc23)NC(=O)[C@H](CCCNC(=N)N)NC(=O)[C@@H](Cc2ccccc2)NC(=O)[C@H](Cc2c[nH]cn2)NC(=O)[C@H](CCC(=O)O)NC1=O	–	0.00044 µM
CC(=O)N[C@@H](Cc1ccc(O)cc1)C(=O)N[C@@H](CCCCN)C(=O)N[C@H]1CSSC[C@@H](C(N)=O)NC(=O)[C@H](Cc2c[nH]c3ccccc23)NC(=O)[C@H](CCCNC(=N)N)NC(=O)[C@@H](Cc2ccccc2)NC(=O)[C@H](Cc2c[nH]cn2)NC(=O)[C@H](CCC(=O)O)NC1=O	0.098 µM	–
